Molecular target: T1, rVGAT (RUNC-47, rat unc-47 homologue) (Rattus norvegicus, UniProt O35458)
T1 construct: expressed in transfected cells
T1 sequence (O35458 1-525): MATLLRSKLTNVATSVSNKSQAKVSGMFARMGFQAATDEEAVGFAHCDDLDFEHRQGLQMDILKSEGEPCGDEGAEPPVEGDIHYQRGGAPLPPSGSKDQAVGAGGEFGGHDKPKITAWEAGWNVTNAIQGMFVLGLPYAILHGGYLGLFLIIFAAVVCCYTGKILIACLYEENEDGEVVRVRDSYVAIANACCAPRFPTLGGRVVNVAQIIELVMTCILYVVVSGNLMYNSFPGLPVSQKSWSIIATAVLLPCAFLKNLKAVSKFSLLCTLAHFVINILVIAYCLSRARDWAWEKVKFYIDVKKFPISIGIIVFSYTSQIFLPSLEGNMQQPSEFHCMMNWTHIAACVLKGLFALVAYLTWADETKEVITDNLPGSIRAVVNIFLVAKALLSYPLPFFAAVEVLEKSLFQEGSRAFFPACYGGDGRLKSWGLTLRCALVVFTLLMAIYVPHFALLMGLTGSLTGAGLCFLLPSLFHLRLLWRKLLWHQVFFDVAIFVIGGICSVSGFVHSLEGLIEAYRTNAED
Experiment: 3H-GABA transport assay in vesicles from PC12 cells stably expressing rVGAT (RUNC-47)
Type: biochemical
Description: Stable PC12 transformants expressing high levels of the putative transport protein were isolated by screening cell clones with fluorescent-tagged antibodies generated against the rat unc-47 homologue RUNC-47. […] A population of light vesicles was then isolated from two stable transformants and purified by differential centrifugation (Example 7).
Hereafter, the terms RUNC-47 and rVGAT are used interchangeably.
These studies were carried out in the transport assay detailed in Example 8, using synaptic vesicles prepared from transfected PC-12 cells, as described above and detailed in Example 7.
Briefly, vesicles were prepared from PC12 cell clone B1 stably expressing rVGAT and from un-transfected cells.
The rat unc-47 homologue cDNA subcloned into the plasmid expression vector pcDNA3-Amp (InVitrogen; Carlsbad, Calif.) was introduced into PC12 cells by electroporation (Grote, et al., Cell 81, 581-589, 1995). […]
Incubation was performed at 29° C. for varying intervals and the reaction was terminated by rapid filtration (Supor 200, Gelman; AnnArbor, Mich.), followed by immediate washing with 6 ml cold 0.15 M KCl. Background uptake was determined by incubation at 4° C. for 0 minutes. The bound radioactivity was measured by scintillation counting in 2.5 ml Cytoscint (ICN). […]

In the case of O=C(O)C1CCCNC1 (centres unmarked) [nipecotic acid], the IC50 is reported as 46 mM and the “Inhibition of rVGAT activity (3H-GABA transport), in words” value is reported as “inhibits rVGAT activity only weakly”.

Reference: patent US6660846B1, “Vesicular amino acid transporter composition and method” (The Regents of the University of CA, priority 1997, dated 2003)
